Results reported in BindingDB's records for doi:10.1021/jm00354a003 (1983).

Amino acid sequences for entries named in this document (tags omitted).
UniProt B0FL73, whole entry: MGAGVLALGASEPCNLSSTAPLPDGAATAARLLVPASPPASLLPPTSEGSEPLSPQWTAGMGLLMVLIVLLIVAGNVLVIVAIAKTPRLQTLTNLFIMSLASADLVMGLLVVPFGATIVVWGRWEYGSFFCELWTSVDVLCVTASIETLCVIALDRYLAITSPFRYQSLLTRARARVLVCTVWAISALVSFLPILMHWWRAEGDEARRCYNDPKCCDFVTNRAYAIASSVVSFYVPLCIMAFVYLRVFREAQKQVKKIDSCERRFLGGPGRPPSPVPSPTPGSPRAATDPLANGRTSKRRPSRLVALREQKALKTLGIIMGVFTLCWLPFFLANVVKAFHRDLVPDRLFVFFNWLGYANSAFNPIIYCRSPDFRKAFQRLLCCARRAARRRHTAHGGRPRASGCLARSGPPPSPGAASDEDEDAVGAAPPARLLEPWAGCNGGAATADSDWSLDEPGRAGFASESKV

Legend:
[1] = biological target: T1, Beta-1 adrenergic receptor (Cavia porcellus, UniProt B0FL73); test: Ability to block Beta-1 adrenergic receptor in guinea pig right atria preparation at a duration of 3h
[2] = biological target: T1, Beta-1 adrenergic receptor

Kd [1]: 1 pM
Kd [2]: 1 pM
Structure (SMILES): COC(=O)CCc1ccc(OCC(O)CNC(C)C)cc1 (configuration not stated) [Brevibloc]
